Earlier results on one substance are cited in PMC9966187.

The Kd is the equilibrium constant for the complex coming apart.

The target in data set [1] is hexapeptide MYWYPY.
Data set [2] addresses dodecapeptide ….
Data set [3] concerns the target octavalent YRYPY peptide.

As to concanavalin A (from UniProt P02866), the Kd in data set [1] was 800 µM; in data set [2] it was 46 µM; in data set [3], 0.001 µM.
